## Apparent affinities of Ab-14 variants for a coronavirus HR2 peptide

The measurements come from Li et al. 2023 (doi:10.1038/s41467-023-39022-2) through the FLAb antibody collection.

Target peptide (SARS-CoV-2 spike, HR2 region): PDVDLGDISGINAS

Each scFv is VH, the linker GGGGSGGGGSGGGGS, VL, as in the parent Ab-14, and differs from it in the CDRs of the heavy chain only.
VH: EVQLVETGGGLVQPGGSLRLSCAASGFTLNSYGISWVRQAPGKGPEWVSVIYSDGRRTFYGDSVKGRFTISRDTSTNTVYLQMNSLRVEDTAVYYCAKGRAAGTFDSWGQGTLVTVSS
VL: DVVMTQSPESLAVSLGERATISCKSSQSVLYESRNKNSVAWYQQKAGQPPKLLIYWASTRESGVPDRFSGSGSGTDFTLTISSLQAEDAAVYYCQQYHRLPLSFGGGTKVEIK

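The variants were designed computationally from a first round of random CDR variants and then made and measured. Several design methods are mixed in this list. The scFvs were displayed on barcoded MATa yeast, the peptide on MATalpha yeast. After mating in shaken culture at 30 °C for 16 h, diploids were selected and their barcode pairs sequenced. Each replicate has its own calibration line, from reference interactions of the BCL2 family. There are six technical replicates.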

Each variant's VH is given in full.
This list holds designs with at most six substitutions.
Kd is apparent (estimated from mating counts) and averaged on the log scale over replicates with a signal. Smaller is tighter.
Where no diploid with the target was found in any replicate, the entry reads "nd": below detection, most likely a poor binder, though not proof of it.
Of ten entries with the parent sequence, four were seen in most replicates (averages 2.2 nM to 240 nM), three in one and three in none, so single entries are noisy.

For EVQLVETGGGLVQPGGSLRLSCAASGFNLNSYGISWVRQAPGKGPEWVSVIYSDGRRTFYIDEVKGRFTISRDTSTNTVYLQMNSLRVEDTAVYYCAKGRTAGTFDSWGQGTLVTVSS, the assay gave 4.7 nM (6 of 6 replicates; controls 0 of 18). Variant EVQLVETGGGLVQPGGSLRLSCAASGFTLNSYGISWVRQAPGKGPEWVSVIYSDGRRTFYGPSVKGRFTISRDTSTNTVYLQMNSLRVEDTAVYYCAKGRQAGTPDSWGQGTLVTVSS showed 11 nM (1 of 6 replicates; controls 0 of 18). Variant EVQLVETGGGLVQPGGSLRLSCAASGFNLNSYGISWVRQAPGKGPEWVSVIYSDGRRTFYADSVKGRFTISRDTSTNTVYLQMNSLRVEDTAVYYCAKGKTAGTFDCWGQGTLVTVSS gave 23 nM (1 of 6 replicates; controls 0 of 18). Variant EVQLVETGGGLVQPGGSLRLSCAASGFRLNSYGISWVRQAPGKGPEWVSVIYSDGRRTFYKDSVKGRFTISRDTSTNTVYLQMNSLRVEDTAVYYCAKGQLAGTFDSWGQGTLVTVSS showed nd (0 of 6 replicates; controls 0 of 18). For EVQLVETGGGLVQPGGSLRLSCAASGFSLNSYGISWVRQAPGKGPEWVSVIYSDGRRTFYADDVKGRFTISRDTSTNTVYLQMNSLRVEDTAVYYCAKGVNAGTFDSWGQGTLVTVSS, the assay gave 930 pM (6 of 6 replicates; controls 2 of 18). With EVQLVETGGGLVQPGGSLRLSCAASGFDLNSYGISWVRQAPGKGPEWVSVIYSDGRRTFYIDMVKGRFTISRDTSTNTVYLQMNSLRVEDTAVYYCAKGQAAGTFDSWGQGTLVTVSS the result was nd (0 of 6 replicates; controls 0 of 18). Variant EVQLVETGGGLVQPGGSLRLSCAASGFSLNEYGISWVRQAPGKGPEWVSVIYSDGRRTFYRDSVKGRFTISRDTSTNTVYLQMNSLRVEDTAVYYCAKGRTAGTFDSWGQGTLVTVSS gave nd (0 of 6 replicates; controls 0 of 18). Variant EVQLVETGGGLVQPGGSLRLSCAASGFDLNSYGISWVRQAPGKGPEWVSVIYSDGRRTFYGDQVKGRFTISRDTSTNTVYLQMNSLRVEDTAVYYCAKGRIAGTFDMWGQGTLVTVSS showed 4.4 nM (6 of 6 replicates; controls 0 of 18).

For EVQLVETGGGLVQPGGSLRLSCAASGFTLNSYGISWVRQAPGKGPEWVSVIYSDGRRTFYIDSVKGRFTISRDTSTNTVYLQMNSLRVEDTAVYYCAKGHAAGTFDSWGQGTLVTVSS, the assay gave 6.0 nM (6 of 6 replicates; controls 1 of 18). Variant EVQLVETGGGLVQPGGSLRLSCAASGFTLNSYGSSWVRQAPGKGPEWVSVIYSDGRRTFYGDSVKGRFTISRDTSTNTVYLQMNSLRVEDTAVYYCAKGRQAGTFDSWGQGTLVTVSS showed nd (0 of 6 replicates; controls 0 of 18). Variant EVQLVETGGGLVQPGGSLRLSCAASGFTLNEYGISWVRQAPGKGPEWVSVIYSDGRRTFYGDSVKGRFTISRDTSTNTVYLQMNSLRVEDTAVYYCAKGRAAGTWDSWGQGTLVTVSS gave 100 nM (4 of 6 replicates; controls 0 of 18). Variant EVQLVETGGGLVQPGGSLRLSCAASGFSLNEYGISWVRQAPGKGPEWVSVIYSDGRRTFYSDSVKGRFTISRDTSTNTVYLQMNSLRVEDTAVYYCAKGRAAGHFDSWGQGTLVTVSS gave 570 nM (2 of 6 replicates; controls 0 of 18). Variant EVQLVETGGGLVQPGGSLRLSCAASGFTLNEYGISWVRQAPGKGPEWVSVIYSDGRRTFYGDSVKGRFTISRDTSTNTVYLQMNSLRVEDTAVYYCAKGKAAGTFDLWGQGTLVTVSS gave 920 pM (6 of 6 replicates; controls 0 of 18). For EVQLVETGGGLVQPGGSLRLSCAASGFTLNEYGISWVRQAPGKGPEWVSVIYSDGKRTFYGDSVKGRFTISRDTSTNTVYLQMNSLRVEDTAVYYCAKGRTAGTFWSWGQGTLVTVSS, the assay gave 67 nM (1 of 6 replicates; controls 0 of 18). For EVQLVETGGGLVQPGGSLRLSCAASHFQLNDYGISWVRQAPGKGPEWVSVIYSDGRRTFYGDSVKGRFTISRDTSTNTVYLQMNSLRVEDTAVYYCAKGRQAGTFDSWGQGTLVTVSS, the assay gave 5.6 nM (6 of 6 replicates; controls 0 of 18). For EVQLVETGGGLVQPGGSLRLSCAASGFDLNSYGISWVRQAPGKGPEWVSVIYSDGRRTFYGDSVKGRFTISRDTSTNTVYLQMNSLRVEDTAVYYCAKGKAAGTFDSWGQGTLVTVSS, the assay gave 1.9 nM (12 of 12 replicates; controls 0 of 36).

The first 3 variants above that were never detected:

| VH | apparent Kd | seen in | empty controls |
|---|---|---|---|
| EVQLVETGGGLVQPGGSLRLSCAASGFRLNSYGISWVRQAPGKGPEWVSVIYSDGRRTFYKDSVKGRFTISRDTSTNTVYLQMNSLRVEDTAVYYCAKGQLAGTFDSWGQGTLVTVSS | nd | 0/6 | 0/18 |
| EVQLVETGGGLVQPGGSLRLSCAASGFDLNSYGISWVRQAPGKGPEWVSVIYSDGRRTFYIDMVKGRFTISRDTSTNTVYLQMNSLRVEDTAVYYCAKGQAAGTFDSWGQGTLVTVSS | nd | 0/6 | 0/18 |
| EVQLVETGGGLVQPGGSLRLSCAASGFSLNEYGISWVRQAPGKGPEWVSVIYSDGRRTFYRDSVKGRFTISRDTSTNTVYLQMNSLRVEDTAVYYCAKGRTAGTFDSWGQGTLVTVSS | nd | 0/6 | 0/18 |

The authors' rule: three or more of the six replicates give a measured affinity, fewer mean a poor binder.
The range of this assay differs from that of the first round, and the authors advise against merging the two.
Some sequences occur more than once in the pool; their replicates are pooled.
Nonspecific signal, from three strains lacking the peptide, appeared in 1% of pairings of all heavy chain designs, centred on 120 nM (5% of these signals below 7.0 nM); values are not corrected for it. The control count says in how many pairings with the empty strains this scFv gave a signal.